This data set addresses T1, HSA (Homo sapiens, UniProt P02768).
T1 construct: albumin from human serum (HSA) (>96%), was purchased from Sigma-Aldrich UK; purchased Sigma-Aldrich UK; host or cells: human serum
Briefly: DSC thermal stability of HSA with MEDI7219 and polysorbates. Format: physicochemical. Conditions: DSC of 10 mg/mL HSA, no polysorbate, MEDI7219 10 mg/mL where ligand. As for the experimental part: Lyophilized protein and MEDI7219 were rehydrated by adding buffer to achieve a concentration of 30 mg/mL, then stored at 5 °C for 72 h or until fully dissolved. Polysorbate solutions were prepared at 3 times higher than the desired concentration to account for dilution in the formulation after mixing with MEDI7219. Polysorbate concentrations in experiments were 0.1× and 1× each polysorbates respective CMC. Samples were produced by adding equal volumes of each component to provide the desired formulation. DSC experiments were conducted using a Microcal PEAQ-DSC instrument from Malvern Panalytical. Prior to each experiment, DSC cells were washed with 2% Decon 90 detergent and then rinsed with ultrapure water. The DSC capillary cell volume was 250 μL for both reference and sample cells; for each experiment, the reference cell contained buffer solution. The sample cell contained the prepared formulation of 10 mg/mL HSA, 10 mg/mL MEDI7219, and the polysorbate concentration being investigated. The scanning temperature range was set at 20–105 °C at a rate of 60 °C/h with a total scan time of 85 min and repeated in triplicate. A reference scan of the buffer solution was conducted under identical conditions and subtracted from each run. Data were analyzed using MicroCal PEAQ-DSC Analysis Software v1.64.
For orientation: DSC measures the heat that a sample takes up or gives off during a temperature scan.

Several values for one entry are separate records, joined by “and”; a condition that tells them apart may be missing. Identical values can stand only once.

Regarding “HSA: albumin from human serum, model protein, purchased from Sigma-Aldrich”, the “Tm 1” value was 63.9 °C and 63.9 (±1.2) °C; the “Tm 2” value was 76.3 °C and 76.3 (±0.1) °C. In addition, where the note is “20–105 °C at 60 °C/h”, the total area was 722 (±43.5) kJ/mol.
